From BindingDB's records for doi:10.1016/s0014-2999(99)00610-x (Hungarian Academy of Sciences, 1999)

Chains of the proteins cited; added tags and fusions are not shown.
UniProt P33535, whole entry: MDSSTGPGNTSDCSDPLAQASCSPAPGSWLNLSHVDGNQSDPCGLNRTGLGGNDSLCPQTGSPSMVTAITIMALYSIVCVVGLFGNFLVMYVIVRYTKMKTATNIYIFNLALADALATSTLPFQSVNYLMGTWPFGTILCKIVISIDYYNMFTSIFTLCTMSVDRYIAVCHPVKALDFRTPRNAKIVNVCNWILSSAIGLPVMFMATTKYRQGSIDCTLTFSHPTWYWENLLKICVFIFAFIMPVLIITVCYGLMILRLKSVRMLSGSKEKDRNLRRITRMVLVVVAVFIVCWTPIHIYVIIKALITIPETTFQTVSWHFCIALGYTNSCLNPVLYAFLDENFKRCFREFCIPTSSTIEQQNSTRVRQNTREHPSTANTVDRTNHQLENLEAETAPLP

Biological target: Mu-type opioid receptor (Rattus norvegicus, UniProt P33535)

Q: Which Ki does the source give for `C[C@@H](NC(=O)[C@@H](N)Cc1ccc(O)cc1)C(=O)NCC(=O)N(C)[C@@H](Cc1ccccc1)C(=O)NCCO` [[tyrosyl-3,5-3H(N)]-D-Ala2-Mephe4-glyol5-enkephalin] here?
A: 1.1 nM
